Drawing on PubChem BioAssay AID624202 (National Center for Advancing Translational Sciences (NCATS), 2012), this text covers activation for 33 compounds.

This is a selection; strong and weak results do not stand in their true shares. Some tests of the compounds listed are not included; inactive here does not mean inactive elsewhere. Activity calls are given as the source filed them. The call rests on the fitted dose curve; in most records, active means well fitted activation curve with a large enough effect; inconclusive means small, poorly fitted or top-dose-only effect; inactive means no such curve, though single readings can be large or run the other way.

The nature of the experiment: qHTS Assay to Identify Small Molecule Activators of BRCA1 Expression. Further: nearly all actives have a fitted effect of over 80% in size. As to conditions: MCF7-BRCA1-FFLuc reporter, luminescence, 48 h, scaled: vehicle 0%, 10 µM genistein 100%; at 46.1 µM (top of the series). A general note: qHTS replaces the single test concentration by a dilution series.
With `Cc1ccccc1C(=O)NCC1(N2CCCCC2)CCCCC1`, the activation was inactive: -7.7%.
Then `CN(C)C1(CNC(=O)c2ccccc2[N+](=O)[O-])CCCCC1`, with inactive: 14.2%.
For `CN(C)c1ccc(C(=O)NCC2(N(C)C)CCCCC2)cc1` the value was inactive: 22.5%.
For the compound `CN(C)C1CCCC1OC(=O)C(O)(c1ccccc1)c1ccccc1` (stereo not drawn), the activation was inactive: -16.7%.
For `CCCCOc1ccccc1C(=O)NCC1(N(C)C)CCCCC1` the value was inactive: -0.377%; for `C=CCN1CCN(CCOC(=O)C(O)(c2ccccc2)c2ccccc2)CC1`, inactive: -3.55%; for `O=C(NCC1(N2CCCCC2)CCCCC1)c1cc(F)c(F)cc1Cl`, inactive: -9.77%.
Consider `COc1ccc(C(=O)NCC2(N(C)C)CCCCC2)cc1`, for which the activation was inactive: 12.5%.
Turning to `CCOc1cccc(C(=O)NCC2(N(C)C)CCCCC2)c1`, the activation is inactive: 6.48%.
For `CCN1CCCC(OC(=O)C2(O)c3ccccc3C=Cc3ccccc32)C1` (stereo not drawn) the value was inactive: -1.98%; for `Cc1cc(C(=O)NCC2(N3CCCCC3)CCCCC2)ccc1[N+](=O)[O-]`, inactive: -16.2%; for `O=C(NCC1(N2CCCCC2)CCCCC1)c1cccc(Br)c1`, inactive: -29%.
Then `O=C(NCC1(N2CCCCC2)CCCCC1)c1cc([N+](=O)[O-])ccc1Cl`, with inactive: 1.11%.
Then `CN1[C@@H]2CC[C@H]1CC(OC(=O)C(O)(c1ccccc1)c1ccccc1)C2` (stereo partly drawn), with inactive: -7.18%.
With `CN(C)C1(CNC(=O)c2cccc(Cl)c2)CCCCC1`, the activation was inactive: -12.5%.
As to `CCN(CC)CC(C)C(C)OC(=O)C(O)(c1ccccc1)c1ccccc1` (stereo not drawn), the activation is inactive: 0%.
On to `COc1cc(SC)ccc1C(=O)NCC1(N(C)C)CCCCC1`, for which the activation was inactive: -22.9%.
Then `CC(C)N1C(=O)CC2(CCN(CCOC(=O)C(O)(c3ccccc3)c3ccccc3)CC2)C1=O`, with inactive: -2.56%; and `Cc1ccc(C(=O)NCC2(N3CCCCC3)CCCCC2)cc1`, with inactive: -14.7%; and `CN(C)C1(CNC(=O)c2ccccc2F)CCCCC1`, with inactive: 3.26%.
For `COc1cccc(C(=O)NCC2(N3CCOCC3)CCCCC2)c1` the value was inactive: -16%; for `O=C(OC1CN2CCC1CC2)C(CO)(c1ccccc1)c1ccccc1` (stereo not drawn), inactive: 4.01%; for `C=C(C)C#CC(O)(C(=O)OC1CCN(C)CC1)c1ccccc1` (stereo not drawn), inactive: 31.7%.
Regarding `COc1ccc(Br)c(C(=O)NCC2(N3CCCCC3)CCCCC2)c1`, the activation was inactive: 4.89%.
For `CC(C)Oc1ccc(C(=O)NCC2(N(C)C)CCCCC2)cc1` the value was inactive: 9.74%; for `O=C(OCCN1CCCC1)C(O)(c1ccccc1)c1ccccc1`, inactive: -7.35%; for `CN(C)c1cccc(C(=O)NCC2(N(C)C)CCCCC2)c1`, inactive: -12.5%.
Turning to `O=C(CBr)c1ccc(Cl)cc1`, the activation is inactive: 3.63%.
For `CN(C)C1(CNC(=O)c2ccc(Br)cc2)CCCCC1` the value was inactive: -8.97%.
For `COc1cc(C(=O)NCC2(N(C)C)CCCCC2)c([N+](=O)[O-])cc1OC` the value was inactive: -3.6%.
Consider `COc1cccc(C(=O)NCC2(N3CCCCC3)CCCCC2)c1`, for which the activation was inactive: -1.89%.
On to `COc1ccc(Cl)cc1C(=O)NCC1(N(C)C)CCCCC1`, for which the activation was inactive: -3.12%.
Then `O=C(NCC1(N2CCCCC2)CCCCC1)c1cccc(Cl)c1`, with inactive: -30%.
